According to US11191743B2, “Modulators of zinc activated cation channel” (Dignity Health, priority 2016, dated 2021):

Target: T1, ZACN (Homo sapiens, UniProt Q401N2)
T1 sequence (Q401N2 26-412): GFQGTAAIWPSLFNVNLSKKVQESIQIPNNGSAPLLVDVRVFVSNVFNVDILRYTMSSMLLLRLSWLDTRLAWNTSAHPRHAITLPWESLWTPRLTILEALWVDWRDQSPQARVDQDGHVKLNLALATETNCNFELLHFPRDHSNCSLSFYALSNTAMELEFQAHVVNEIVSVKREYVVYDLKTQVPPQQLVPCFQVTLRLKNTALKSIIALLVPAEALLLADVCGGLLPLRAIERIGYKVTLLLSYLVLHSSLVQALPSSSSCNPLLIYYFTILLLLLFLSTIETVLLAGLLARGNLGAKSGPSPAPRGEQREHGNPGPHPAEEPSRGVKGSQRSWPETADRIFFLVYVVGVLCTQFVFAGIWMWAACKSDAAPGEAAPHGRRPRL
Test: Two-electrode voltage-clamp, ZACN expressed in Xenopus laevis oocytes: agonist-induced current
Format: cell-based
Design: host or cells: Xenopus laevis oocytes injected with cRNA (pGEMHE vector, T7 transcript)
From the text: The cDNA encoding wild type, human ZACN was purchased from OpenBiosystems, and cloned into the pGEMHE vector in the T7 orientation. For cRNA synthesis, cDNA templates were PCR amplified using primers that cover the M13 forward and reverse regions and high fidelity Phusion DNA polymerase (New England Biolab, Ipswich, Mass., USA). PCR products were then purified and served as templates for cRNA synthesis. cRNAs were transcribed by T7 RNA polymerase (Promega, Madison, Wis., USA) using standard in vitro transcription protocols. After digestion of the DNA template by RNase-free DNase I, cRNAs were purified and resuspended in diethyl pyrocarbonate (DEPC)-treated water. cRNA integrity was examined on a 1% agarose gel, and cRNA concentration was determined by optical density measurements at 260 nm using an Eppendorf Biophotometer.
Oocytes were harvested from female Xenopus laevis (Xenopus I, Ann Arbor, Mich., USA), using the protocol “Xenopus Care and Use” approved by the Institutional Animal Care and Use Committee of the St. Joseph's Hospital and Medical Center. Stage VI oocytes were selected and incubated at 16° C. before injection. […]

For COc1cc(-c2ccc(-n3nc(-c4ccccc4)n[n+]3-c3ccc([N+](=O)[O-])cc3)c(OC)c2)ccc1-n1nc(-c2ccccc2)n[n+]1-c1ccc([N+](=O)[O-])cc1 [Nitro Blue Tetrazolium], the “EC50 of NBT relative to that of ZnCl2 (fold lower)” value was “approximately 100 fold” and the EC50 (EC50 in activating ZACN, ZACN expressed in X. laevis oocytes) was 17 µM.
